US20160095958A1, “BONE REGENERATION USING STROMAL VASCULAR FRACTION, PLATELET-DERIVED GROWTH FACTOR-RICH HYDROGEL, THREE-DIMENSIONAL PRINTED POLY-EPSILON-CAPROLACTONE SCAFFOLDS” (THE JOHNS HOPKINS UNIVERSITY, priority 2013, published 2016)

Tested on: ASCs
Experiment: Vascularized bone co-development: encapsulated ASC spheroids, VM 8 days then OM 12 days
Type: cell-based, human
Settings: 20 ng/mL
Procedure: Settled spheroid pellets were resuspended in fibrinogen (8 mg/mL final; Sigma), followed by the addition of thrombin (2.5 U/mL final; Sigma) to initiate gelation. Fibrin gels (35 μL) containing 40 spheroids each (in the aggregation study the number of spheroids per gel was varied to keep the total cell number constant) were pipetted into 6-mm diameter wells and incubated at 37° C. for 30 minutes to allow complete gelation prior to the addition of culture medium. Samples were then cultured for two to three weeks, depending on the experiment, with media changed every other day.
Vascular medium (VM) consisted of: Endothelial Basal Medium-2 (Lonza), 6% FBS, 1% penicillin/streptomycin, 10 ng/mL VEGF165, 1 ng/mL FGF-2, and 1 μg/mL L-ascorbic acid-2-phosphate (Sigma). For monolayer osteogenic differentiation experiments, control medium consisted of low glucose DMEM (GIBCO Invitrogen), 6% FBS, and 1% penicillin/streptomycin; Osteogenic Medium (OM) consisted of control medium plus 10 mM β-glycerophosphate (Sigma) and 50 μM L-ascorbic acid-2-phosphate. For osteogenic differentiation in fibrin gels, OM also included 10 ng/mL VEGF165 and 1 ng/mL FGF-2 to support vascular viability. […]
For monolayer experiments, ASCs were seeded at 5000 cells/cm^2 and cultured in either control medium or OM for 21 days, with the addition of either PDGF-BB or PDGF receptor inhibitor tyrphostin AG1295 (Santa Cruz Biotechnology). Mineralization was assessed via Alizarin Red S staining and quantification of calcium content. […] Mineralization was assessed via quantification of calcium content normalized to DNA content. […] To quantify calcium content in each sample, monolayers or whole fibrin gels were washed twice with PBS and then incubated with 0.5 N HCl overnight at 4° C. with agitation. Calcium content in the sample supernatants was quantified using a colorimetric Calcium LiquiColor Test (Stanbio). DNA content was quantified using a PicoGreen dsDNA quantitation kit (Molecular Probes) as previously described. […]

B1: BMP-2: bone morphogenetic protein-2, pro-osteogenic and pro-angiogenic growth factor (protein, UniProt P12643 283-396, looked up)
Bone morphogenetic protein 2: QAKHKQRKRLKSSCKRHPLYVDFSDVGWNDWIVAPPGYHAFYCHGECPFPLADHLNSTNHAIVQTLVNSVNSKIPKACCVPTELSAISMLYLDENEKVVLKNYQDMVVEGCGCR
  calcium content versus control group (VM-OM): no significant changes
  vascular network length versus control group (VM-OM): no significant changes
  αSMA staining intensity: only slightly greater than control
